Screening results: PubChem BioAssay, National Center for Advancing Translational Sciences (NCATS)
In the library only some 0.43% were active in any assay of this set; here they are far more common.
CCT modulator: cytosolic chaperonin activity modulation | purified chaperonin ATPase assay, HTRF ADP detection, 30 min | activity change, % (no concentration beside the values), hits read low | 360,000 compounds, 0.3% hits; in the data active means activity change below about -30%
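TRiC (40 or 20 nM final, by batch activity) in 30 mM Tris pH 7.4, 100 mM KCl, 5 mM MgCl2, 1 mM DTT was treated with compound at 76 uM single dose, then 10 uM ATP, 30 min at 37 °C. ADP was read by HTRF Transcreener.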
Rango complex inh: prevents formation of the Rango-importin beta complex; Q14974; Rango CFP/YFP FRET sensor + importin beta, 45 min; Potency, µM (highest dose often 92.2 µM); 340,000 compounds, 0.031% hits; AID 540263; further: nearly all actives have a fitted effect of over 15% in size
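Inhibition scored from the CFP 486 nm/YFP 530 nm FRET ratio 45 min after adding 0.125 microM importin beta to 50 nM Rango biosensor preincubated 5 min with compound (room temperature, PBS with DTT, Tween-20, BSA). No-importin wells as positive control.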
Mm-Cpn inhibitor: blocks the Methanococcus maripaludis chaperonin Mm-Cpn; purified Mm-Cpn ATPase, ADP Transcreener TR-FRET; Potency, µM (highest dose often 76.9 µM), hits mostly inhibitors; 330,000 compounds, 0.031% hits; AID 504842; active means well fitted curve in the direction sought with a large enough effect; inconclusive means small, poorly fitted or top-dose-only effect, or another doubt; inactive means no such curve, though single readings can be large; an effect the other way counts as inactive or inconclusive; further: nearly all actives have a fitted effect of over 80% in size
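Measured: ADP formation by purified Mm-CPN. Conditions: 25 nM protein, 10 uM ATP, Tris pH 7.4 with Mg2+, K+ and DTT, 37°C for 30 min. Detection: Transcreener HTRF after 30 min at room temperature.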
B2AR arrestin: recruits beta-arrestin to the human beta2-adrenergic receptor. beta-arrestin recruitment to beta2AR, cell-based reporter. AID 492947. Potency, µM (highest dose often 46.1 µM), most hits filed as activators. 330,000 compounds, 0.02% hits; active means well fitted curve in the direction sought with a large enough effect; inconclusive means small, poorly fitted or top-dose-only effect, or another doubt; inactive means no such curve, though single readings can be large; an effect the other way counts as inactive or inconclusive; further: nearly all actives have a fitted effect of over 65% in size
Rango release inh: prevents RanGTP from dissociating the Rango-importin beta complex; 340,000 compounds, 0.071% hits; Potency, µM (top dose mostly 46.1 µM); Biochemical FRET Rango-importin beta, RanGTP-induced dissociation; O95149+P62826; AID 540253; further: nearly all actives have a fitted effect of over 45% in size
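FRET read at 45 min, room temperature: inhibitors block the CFP/YFP signal rise when RanGTP (0.6 uM Ran, 2 mM GTP, 0.2 uM RCC1) frees Rango (0.1 uM) from importin beta (0.25 uM). Pre-read after 5 min compound exposure flags interference.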
Hits are given with their value; – = inactive; ? = inconclusive; · = no result given. Unless noted, the call rests on the fitted dose curve.

SMILES	CCT modulator	Rango complex inh	Mm-Cpn inhibitor	B2AR arrestin	Rango release inh
CCOC(=O)c1c(NC(=S)Nc2ccccc2)sc2c1CC(C)(C)SC2	–	?	50µM	–	–
COc1ccc(C(NC(=O)c2cccnc2)c2cc(Cl)c3cccnc3c2O)cc1OC (centres undefined)	–	37µM	–	–	?
COCCNC(=O)c1nn2c(C(F)(F)F)cc(-c3ccccc3)nc2c1Br	–	·	·	·	·
CCOC(=O)c1nn2c(C(F)(F)F)cc(-c3ccc(OC)cc3)nc2c1Br	-33	–	–	–	–
CCN1CCN(c2cc(N3CCN(C(=O)c4ccco4)CC3)c3c4c(onc24)-c2ccccc2C3=O)CC1	–	33µM	–	–	?
O=C(Cc1ccccc1[N+](=O)[O-])Nc1nccs1	-33	–	–	–	–
O=C(Cc1ccccc1)Nc1nccs1	–	–	–	–	–
COC(=O)CCC(=O)OC1(C)C(=O)C2=CN(c3ccccc3)C(c3ccc(OC)cc3)=CC2=C(Br)C1=O (centres undefined)	–	?	·	·	16µM
COC(=O)CCC(=O)OC1(C)C(=O)C2=CN(Cc3ccccc3)C(c3ccc(OC)cc3)=CC2=C(Br)C1=O (centres undefined)	–	?	·	·	?
Oc1ccc(/C=N\Nc2cc(N3CCOCC3)nc(N3CCOCC3)n2)c(O)c1	-52	?	–	–	–
Cc1cc(N/N=C/c2ccc(O)cc2O)nc(N2CCOCC2)n1	–	?	–	–	–
CCOc1ccc(CCNC(=O)c2cccc(N3CCCC3=O)c2)cc1OCC	–	–	–	–	–
COc1ccc(CCNC(=O)c2ccc(N3CCCC3=O)cc2)cc1OC	-32	–	–	–	–
Cc1cccc(CC(=O)N2CCC(n3nccc3NC(=O)C3CC3)CC2)c1	-56	–	–	–	–
O=C(Nc1ccnn1C1CCN(C(=O)Cc2cccc(Cl)c2)CC1)C1CC1	–	–	–	–	–
CCCNC(=O)C1(C)CCN1C(=O)Cc1ccc(C(C)C)cc1 (centres undefined)	–	·	·	·	·
O=C(OCc1ccccc1)N1CCC2CC1c1c2cccc1N1CCOCC1 (centres undefined)	–	·	·	·	·
Cn1nc(C(=O)OCC(=O)NCc2ccc(Cl)cc2)c2ccccc2c1=O	–	–	–	–	–
Cc1ccc(Cl)c(NC(=O)COC(=O)c2nn(C)c(=O)c3ccccc23)c1Cl	-43	–	–	–	–
Cn1nc(C(=O)OCC(=O)NCCc2ccccc2)c2ccccc2c1=O	-32	–	–	–	–
Cc1c(Cl)cnc(NC(=O)COC(=O)c2nn(C)c(=O)c3ccccc23)c1Cl	–	–	?	–	–
Cc1ccccc1-n1sc2cc(F)ccc2c1=O	–	–	–	–	–
CC(=O)Nc1ccc(S(=O)(=O)NC2(C(F)(F)F)N=C(c3ccccc3)NC2=O)cc1 (centres undefined)	–	–	–	–	–
O=C(O)CCn1cc(/C=N/O)c(-c2cccc([N+](=O)[O-])c2)n1	–	–	–	–	–
NC(=O)Nc1cc(Cl)ccc1Cl	-85	–	–	–	–
SMILES	CCT modulator	Rango complex inh	Mm-Cpn inhibitor	B2AR arrestin	Rango release inh
Cc1ccc(C(=O)N/N=c2\oc3ccccc3cc2C(N)=O)cc1	-30	–	–	–	–
NC(=O)c1cc2ccccc2o/c1=N\NC(=O)c1ccncc1	–	–	–	–	–
Cc1ccc(C(=O)NC2CCN(CC(=O)Nc3ccccc3Cl)CC2)cc1	-37	–	–	–	–
COC(=O)c1ccccc1NC(=O)CN1CCC(NC(=O)c2ccc(C)cc2)CC1	–	–	–	–	–
O=C1Nc2ccc(S(=O)(=O)NCc3ccccn3)c3cccc1c23	–	?	–	–	7.3µM
CN(C)CCNS(=O)(=O)c1ccc2c3c(cccc13)C(=O)N2	–	?	–	–	?
COC(=O)c1c(NC(=O)C2CC=CCC2C(=O)O)sc2c1CCCCC2 (centres undefined)	–	–	–	–	–
CC1(C)CC(=O)C2=C(C1)N1C(=C(C#N)C2c2ccc(Cl)cc2)N=C(N)c2ccccc21 (centres undefined)	-36	?	–	–	–
CC(=NCCCn1ccnc1)c1c(C)[nH]n(-c2ccc([N+](=O)[O-])cc2)c1=O	–	–	40µM	–	–
COc1cccc(CN2CCNC(=O)C2CC(=O)NCCc2nc(C)c(C)s2)c1OC (centres undefined)	–	–	–	–	?
CCC(C)(C)NC(=O)C(c1ccccc1F)N(C(=O)c1ccn[nH]1)c1ccccc1 (centres undefined)	–	–	–	–	–
CC(C)(C)NC(=O)C(c1ccc(F)cc1)N(Cc1ccccc1Cl)C(=O)c1ccn[nH]1 (centres undefined)	–	–	–	1µM	–
O=C1c2cccnc2C(O)N1Cc1ccc(F)cc1 (centres undefined)	-32	–	–	–	–
CSc1nc2[nH]c(=O)n(O)c(=O)c2n1Cc1ccccc1	–	–	·	·	–
CCOC(=O)c1c(-c2ccccc2)nc2ccccn12	–	–	–	–	–
CCOC(=O)c1c(-c2ccccc2)nc2c(C)cccn12	-119	–	–	–	–
COc1ccc(-c2cnc3c(NC(C)=O)cc(-c4cccc(C(=O)N(C)C)c4)cn23)cc1OC	-33	·	·	·	·
COc1ccc(-c2cnc3c(NC(C)=O)cc(-c4cccc(C(=O)NCCN(C)C)c4)cn23)cc1OC	–	·	·	·	·
CC(C(=O)O)N1C(=O)C2C3CC(C2C1=O)C1C(c2ccccc2)c2sc(=O)[nH]c2SC31 (centres undefined)	–	?	–	–	23µM
CCCc1cc(=O)oc2cc(C)cc(OCC(=O)NC(Cc3ccc(Cl)cc3)C(=O)O)c12 (centres undefined)	–	–	–	–	–
CCCCc1cc(=O)oc2cc(C)cc(OCC(=O)NC(Cc3ccc(Cl)cc3)C(=O)O)c12 (centres undefined)	-60	–	–	–	–
CC(NC(C)c1ccccc1Cl)C(=O)Nc1cccc(S(=O)(=O)N2CCCCC2)c1 (centres undefined)	–	–	–	–	–
COc1ccc(CCNS(=O)(=O)c2cc3c4c(c2)C(C)C(=O)N4CCC3)cc1OC (centres undefined)	–	–	–	–	16µM
COc1ccc(OCC(=O)NNC(=O)c2cc3ccccc3o2)cc1	-67	–	–	–	–
COc1ccc(CNC(=S)NNC(=O)c2cc3ccccc3o2)cc1	–	–	–	–	–
CCN(CC)C(=O)COc1coc(CN2CCN(c3ccccc3)CC2)cc1=O	–	–	–	–	–
COc1ccc2cc(C3(C)NC(=O)N(CC(=O)N4CCCCC4)C3=O)ccc2c1 (centres undefined)	–	–	–	–	–
COc1cc(/C=C/C(=O)OCC(=O)N2CCCc3ccccc32)ccc1OCC#N	–	–	–	–	–
